Earlier results, collected in paper PMC7157535.

Protein sequences, listed by entry. Tags and fused reporters are not part of them. Residues count along the entry.
UniProt P04233, 73-296: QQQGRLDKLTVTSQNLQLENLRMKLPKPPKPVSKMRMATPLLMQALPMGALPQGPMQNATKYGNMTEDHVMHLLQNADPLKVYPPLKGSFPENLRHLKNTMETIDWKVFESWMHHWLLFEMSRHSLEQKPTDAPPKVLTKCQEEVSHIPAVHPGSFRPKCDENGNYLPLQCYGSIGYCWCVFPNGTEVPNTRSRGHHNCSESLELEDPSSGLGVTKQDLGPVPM
UniProt P14174, 2-115: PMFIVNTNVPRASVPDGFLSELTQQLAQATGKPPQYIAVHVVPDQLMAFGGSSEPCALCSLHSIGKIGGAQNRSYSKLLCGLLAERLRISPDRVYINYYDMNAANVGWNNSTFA

Biological target: CD74 (Homo sapiens) (UniProt P04233)

## MIF (from UniProt P14174)
  Kd: 9 nM
